In US9725465B2, “Biaryl acetamide compounds and methods of use thereof” (Ambit Biosciences Corporation, priority 2013, dated 2017):
Blank lines part the entries; values can stand above or below the compound they belong to.

Experiments:
[1] = test system: Ba/F3 cells expressing FLT3-ITD
[2] = target: FLT3-ITD-F691L (Homo sapiens (Human), UniProt P36888, F691L/INS600HVDFREYEYD); experiment: pFLT3 MSD assay, Ba/F3 FLT3-ITD-F691L; assay type: cell-based; details: Ba/F3 FLT3-ITD-F691L cells, 2 hours, read-out: BaF3-FLT3-ITD-F691L pFlt3 IC50
[3] = target: FLT3-ITD-D835V (Homo sapiens (Human), UniProt P36888, D835V/INS600HVDFREYEYD); experiment: pFLT3 MSD assay, Ba/F3 FLT3-ITD-D835V; assay type: cell-based; details: Ba/F3 FLT3-ITD-D835V cells, 2 hours, read-out: BaF3-FLT3-ITD-D835V pFlt3 IC50

Structure (SMILES): COc1cc2ncc(-c3ccc(CC(=O)Nc4cc(C(C)(C)C(F)(F)F)on4)c(F)c3)cc2cc1OCCN1CC[C@H](O)[C@@H](F)C1 (stereo in doubt) [Example 87, 2-(2-Fluoro-4-{6-[2-(3-fluoro-4-hydroxy-piperidin-1-yl)-ethoxy]-7-methoxy-quinolin-3-yl}-phenyl)-N-[5-(2,2,2-trifluoro-1,1-dimethyl-ethyl)-isoxazol-3-yl]-acetamide]
IC50 [1]: < 10 nM

Structure (SMILES): COc1cc2nc(-c3ccc(CC(=O)Nc4cc(C5(C)CC5)no4)c(F)c3)cnc2cc1OCCN1CCOCC1 [Example 95, 2-(2-fluoro-4-(7-methoxy-6-(2-morpholinoethoxy)quinoxalin-2-yl)phenyl)-N-(3-(1-methylcyclopropyl)isoxazol-5-yl)acetamide]
IC50 [1]: < 10 nM

Structure (SMILES): COc1cc2ncc(-c3ccc(CC(=O)Nc4cc(C(C)(C)C(F)(F)F)on4)c(F)c3)c(N)c2cc1OC [Example 143, 2-[4-(4-amino-6,7-dimethoxy-3-quinolyl)-2-fluoro-phenyl]-N-[5-(2,2,2-trifluoro-1,1-dimethyl-ethyl)isoxazol-3-yl]acetamide]
IC50 [2]: > 50 nM
IC50 [3]: > 50 nM

Structure (SMILES): COc1cc2ncc(-c3ccc(CC(=O)Nc4cc(C(C)(C)C(F)(F)F)on4)c(F)c3)c(OC)c2cc1OC [Example 145, 2-[2-fluoro-4-(4,6,7-trimethoxy-3-quinolyl)phenyl]-N-[5-(2,2,2-trifluoro-1,1-dimethyl-ethyl)isoxazol-3-yl]acetamide]
IC50 [2]: > 50 nM
IC50 [3]: > 50 nM

Structure (SMILES): COc1cc2nc(O)c(-c3ccc(CC(=O)Nc4cc(C5(C(F)(F)F)CC5)on4)c(F)c3)nc2cc1OC [Example 152, 2-[4-(6,7-dimethoxy-3-hydroxy-quinoxalin-2-yl)-2-fluoro-phenyl]-N-[5-[1-(trifluoromethyl)cyclo-propyl]isoxazol-3-yl]acetamide]
IC50 [2]: > 50 nM
IC50 [3]: > 50 nM

Structure (SMILES): CN(C)C(=O)COc1cc2ncc(-c3ccc(CC(=O)Nc4cc(C5(C(F)(F)F)CC5)on4)c(F)c3)nc2cc1OCC(=O)N(C)C [Example 154, 2-[4-[6,7-bis[2-(dimethylamino)-2-oxo-ethoxy]quinoxalin-2-yl]-2-fluoro-phenyl]-N-[5-[1-(trifluoromethyl)cyclo-propyl]isoxazol-3-yl]acetamide]
IC50 [2]: > 50 nM
IC50 [3]: > 50 nM

Structure (SMILES): COc1cc2nc(-c3ccc(CC(=O)Nc4cc(C5(C(F)(F)F)CC5)on4)c(F)c3)cnc2cc1OCc1ccccc1 [Example 163, 2-[4-(6-benzyloxy-7-methoxy-quinoxalin-2-yl)-2-fluoro-phenyl]-N-[5-[1-(trifluoromethyl)cyclo-propyl]isoxazol-3-yl]acetamide]
IC50 [2]: 20 to 50 nM
IC50 [3]: 20 to 50 nM

Structure (SMILES): COc1cc2nc(C)c(-c3ccc(CC(=O)Nc4cc(C5(C(F)(F)F)CC5)on4)c(F)c3)nc2cc1OC [Example 169, 2-[4-(6,7-dimethoxy-3-methyl-quinoxalin-2-yl)-2-fluoro-phenyl]-N-[5-[1-(trifluoromethyl)cyclo-propyl]isoxazol-3-yl]acetamide]
IC50 [2]: 20 to 50 nM
IC50 [3]: > 50 nM

Structure (SMILES): COc1cc2nc(-c3ccc(CC(=O)Nc4cc(C5(C(F)(F)F)CC5)on4)c(F)c3)cnc2cc1OCCn1cncn1 [Example 185, 2-[2-fluoro-4-[7-methoxy-6-[2-(1,2,4-triazol-1-yl)ethoxy]quinoxalin-2-yl]phenyl]-N-[5-[1-(trifluoro-methyl)cyclopropyl]isoxazol-3-yl]acetamide]
IC50 [1]: < 10 nM

Structure (SMILES): COc1cc2ncc(-c3ccc(CC(=O)Nc4cc(C(C)(C)C(F)(F)F)on4)c(F)c3)cc2cc1OCCN1CCC(O)CC1 [Example 206, 2-[2-fluoro-4-[6-[2-(4-hydroxy-1-piperidyl)ethoxy]-7-methoxy-3-quinolyl]phenyl]-N-[5-(2,2,2-trifluoro-1,1-dimethyl-ethyl)isoxazol-3-yl]acetamide]
IC50 [1]: < 10 nM

Structure (SMILES): COc1cc2ncc(-c3ccc(CC(=O)Nc4cc(C5(C(F)(F)F)CC5)on4)c(F)c3)nc2cc1OCCCNC(C)=O [Example 214, 2-[4-[7-(3-acetamidopropoxy)-6-methoxy-quinoxalin-2-yl]-2-fluoro-phenyl]-N-[5-[1-(trifluoromethyl)cyclo-propyl]isoxazol-3-yl]acetamide]
IC50 [1]: < 10 nM

Structure (SMILES): COc1cc2nc(-c3ccc(CC(=O)Nc4cc(C5(C(F)(F)F)CC5)on4)c(F)c3)cnc2cc1OCCN1CCS(=O)(=O)CC1 [Example 216, 2-[4-[6-[2-(1,1-dioxo-1,4-thiazinan-4-yl)ethoxy]-7-methoxy-quinoxalin-2-yl]-2-fluoro-phenyl]-N-[5-[1-(trifluoromethyl)cyclo-propyl]isoxazol-3-yl]acetamide]
IC50 [1]: < 10 nM

Results, then the compound that gave them:

IC50 [2]: < 10 nM
IC50 [3]: < 10 nM
Structure (SMILES): COc1cc2nc(-c3ccc(CC(=O)Nc4cc(C5(C(F)(F)F)CC5)on4)c(F)c3)cnc2cc1OC1COC1 [Example 144, 2-[2-fluoro-4-[7-methoxy-6-(oxetan-3-yloxy)quinoxalin-2-yl]phenyl]-N-[5-[1-(trifluoro-methyl)cyclopropyl]isoxazol-3-yl]acetamide]

IC50 [2]: 20 to 50 nM
IC50 [3]: 20 to 50 nM
Structure (SMILES): COc1cc2nc(Cl)c(-c3ccc(CC(=O)Nc4cc(C5(C(F)(F)F)CC5)on4)c(F)c3)nc2cc1OC [Example 146, 2-[4-(3-chloro-6,7-dimethoxy-quinoxalin-2-yl)-2-fluoro-phenyl]-N-[5-[1-(trifluoromethyl)cyclo-propyl]isoxazol-3-yl]acetamide]

IC50 [2]: < 10 nM
IC50 [3]: < 10 nM
Structure (SMILES): COc1cc2nc(-c3ccc(CC(=O)Nc4cc(C(C)(C)C(F)(F)F)on4)c(F)c3)cnc2cc1OC1COC1 [Example 147, 2-[2-fluoro-4-[7-methoxy-6-(oxetan-3-yloxy)quinoxalin-2-yl]phenyl]-N-[5-(2,2,2-trifluoro-1,1-dimethyl-ethyl)isoxazol-3-yl]acetamide]

IC50 [2]: 20 to 50 nM
IC50 [3]: > 50 nM
Structure (SMILES): CC(C)(c1cc(NC(=O)Cc2ccc(-c3cnc4c(N)cccc4c3)cc2F)no1)C(F)(F)F [Example 151, 2-[4-(8-amino-3-quinolyl)-2-fluoro-phenyl]-N-[5-(2,2,2-trifluoro-1,1-dimethyl-ethyl)isoxazol-3-yl]acetamide]

IC50 [2]: < 10 nM
IC50 [3]: < 10 nM
Structure (SMILES): COc1cc2ncc(-c3ccc(CC(=O)Nc4cc(C(C)(C)C)n[nH]4)c(F)c3)nc2cc1OC [Example 153, N-(3-tert-butyl-1H-pyrazol-5-yl)-2-[4-(6,7-dimethoxyquinoxalin-2-yl)-2-fluoro-phenyl]acetamide]

IC50 [2]: < 10 nM
IC50 [3]: < 10 nM
Structure (SMILES): COc1ccc2ncc(-c3ccc(CC(=O)Nc4cc(C5(C(F)(F)F)CC5)on4)c(F)c3)nc2n1 [Example 155, 2-[2-fluoro-4-(6-methoxypyrido[2,3-b]pyrazin-3-yl)phenyl]-N-[5-[1-(trifluoromethyl)cyclo-propyl]isoxazol-3-yl]acetamide OR 2-[2-fluoro-4-(6-methoxypyrido[2,3-b]pyrazin-2-yl)phenyl]-N-[5-[1-(trifluoromethyl)cyclo-propyl]isoxazol-3-yl]acetamide]

IC50 [2]: 20 to 50 nM
IC50 [3]: 20 to 50 nM
Structure (SMILES): COc1cc2ncc(-c3ccc(CC(=O)Nc4cc(C5(C(F)(F)F)CC5)on4)c(F)c3)nc2cc1OCc1ccccc1 [Example 156, 2-[4-(7-benzyloxy-6-methoxy-quinoxalin-2-yl)-2-fluoro-phenyl]-N-[5-[1-(trifluoromethyl)cyclo-propyl]isoxazol-3-yl]acetamide]

IC50 [2]: < 10 nM
IC50 [3]: < 10 nM
Structure (SMILES): COCCOc1cc2ncc(-c3ccc(CC(=O)Nc4cc(C(C)(C)C(F)(F)F)on4)c(F)c3)nc2cc1OC [Example 159, 2-[2-fluoro-4-[7-methoxy-6-(2-methoxy-ethoxy)quinoxalin-2-yl]phenyl]-N-[5-(2,2,2-trifluoro-1,1-dimethyl-ethyl)isoxazol-3-yl]acetamide]

IC50 [2]: < 10 nM
IC50 [3]: < 10 nM
Structure (SMILES): COCCOc1cc2nc(-c3ccc(CC(=O)Nc4cc(C(C)(C)C(F)(F)F)on4)c(F)c3)cnc2cc1OC [Example 160, 2-[2-fluoro-4-[6-methoxy-7-(2-methoxy-ethoxy)quinoxalin-2-yl]phenyl]-N-[5-(2,2,2-trifluoro-1,1-dimethyl-ethyl)isoxazol-3-yl]acetamide]

IC50 [2]: < 10 nM
IC50 [3]: < 10 nM
Structure (SMILES): COCCOc1cc2nc(-c3ccc(CC(=O)Nc4cc(C(C)(C)C)nn4C)c(F)c3)cnc2cc1OC [Example 161, N-(5-tert-butyl-2-methyl-pyrazol-3-yl)-2-[2-fluoro-4-[6-methoxy-7-(2-methoxyethoxy)quinoxalin-2-yl]phenyl]acetamide]

IC50 [2]: < 10 nM
IC50 [3]: < 10 nM
Structure (SMILES): COCCOc1cc2ncc(-c3ccc(CC(=O)Nc4cc(C(C)(C)C)nn4C)c(F)c3)nc2cc1OC [Example 162, N-(5-tert-butyl-2-methyl-pyrazol-3-yl)-2-[2-fluoro-4-[7-methoxy-6-(2-methoxyethoxy)quinoxalin-2-yl]phenyl]acetamide]

IC50 [2]: < 10 nM
IC50 [3]: < 10 nM
Structure (SMILES): COc1cc2nc(-c3ccc(CC(=O)Nc4cc(C(C)(C)C(F)(F)F)on4)c(F)c3)cnc2cc1O [Example 164, 2-[2-fluoro-4-(6-hydroxy-7-methoxy-quinoxalin-2-yl)phenyl]-N-[5-(2,2,2-trifluoro-1,1-dimethyl-ethyl)isoxazol-3-yl]acetamide]

IC50 [2]: < 10 nM
IC50 [3]: < 10 nM
Structure (SMILES): COc1cc2nc(-c3ccc(CC(=O)Nc4cc(C5(C(F)(F)F)CC5)on4)c(F)c3)cnc2cc1OCCN=[N+]=[N-] [Example 166, 2-[4-[6-(2-azidoethoxy)-7-methoxy-quinoxalin-2-yl]-2-fluoro-phenyl]-N-[5-[1-(trifluoromethyl)cyclo-propyl]isoxazol-3-yl]acetamide]

IC50 [2]: < 10 nM
IC50 [3]: < 10 nM
Structure (SMILES): COc1cc2nc(-c3ccc(CC(=O)Nc4cc(C5(C(F)(F)F)CC5)on4)c(F)c3)cnc2cc1OCCNC(C)=O [Example 168, 2-[4-[6-(2-acetamidoethoxy)-7-methoxy-quinoxalin-2-yl]-2-fluoro-phenyl]-N-[5-[1-(trifluoromethyl)cyclo-propyl]isoxazol-3-yl]acetamide]
